Here are results for two compounds from US20200196599A1 (priority 2018, published 2020).

Amino acid sequences for entries named in this document (tags omitted). Residues count along the entry.
UniProt G4MVD0, 1-632: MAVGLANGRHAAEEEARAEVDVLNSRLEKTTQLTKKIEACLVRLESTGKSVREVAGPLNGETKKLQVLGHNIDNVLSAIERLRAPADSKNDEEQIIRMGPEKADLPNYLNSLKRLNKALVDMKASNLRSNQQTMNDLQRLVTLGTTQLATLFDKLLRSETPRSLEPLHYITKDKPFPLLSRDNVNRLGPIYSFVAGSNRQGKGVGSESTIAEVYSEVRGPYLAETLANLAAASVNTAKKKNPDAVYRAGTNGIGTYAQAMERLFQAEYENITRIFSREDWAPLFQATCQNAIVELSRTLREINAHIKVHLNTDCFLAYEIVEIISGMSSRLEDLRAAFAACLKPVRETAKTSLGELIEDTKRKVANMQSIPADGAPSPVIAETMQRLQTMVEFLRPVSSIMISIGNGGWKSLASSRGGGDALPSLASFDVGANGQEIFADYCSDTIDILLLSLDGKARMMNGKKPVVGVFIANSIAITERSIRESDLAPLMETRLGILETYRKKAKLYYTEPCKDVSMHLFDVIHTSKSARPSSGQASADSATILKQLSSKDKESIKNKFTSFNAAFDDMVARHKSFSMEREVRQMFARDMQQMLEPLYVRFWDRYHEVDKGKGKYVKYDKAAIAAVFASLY

One assay concerns M. oryzae. Type of assay: cell-based, Magnaporthe oryzae. The following applies: CM medium, 12 days.
Another assay relates to B. cinerea. It counts as cell-based, Botrytis cinerea.
For another assay, the target named is GFP-MoEXO70 (Pyricularia oryzae, UniProt G4MVD0). Kind of assay: biochemical. It counts as binding, M. oryzae.

Where two headings read alike, the source gives them in different places. A value given as a limit tells only on which side of the number the result lay.

Take `COc1cc(/C=N/NC(=O)c2cccc(F)c2)cc(I)c1O` [ES2, endosidin2, reference compound]: the “concentration causing significant reduction in growth of M. oryzae” value in the assay on M. oryzae is at least 20 µM. For the same compound, the “concentration that significantly inhibited the growth rate of B. cinerea” value in the assay with B. cinerea is at least 40 µM. The same compound came in with a dissociation constant Kd at GFP-MoEXO70 of 108 ± 49 µM.
Consider `O=C(N/N=C/c1cc(I)c(O)c(I)c1)c1cccc(F)c1` [analog 14], for which the Kd at GFP-MoEXO70 (read-out: calculated Kd with GFP-MoEXO70 (MST)) is 37 ± 18 µM.

The Kd is the equilibrium constant for the complex coming apart.
